The text below walks through data of PMC8038090, “Xanthine Oxidase Inhibitors from Filipendula ulmaria (L.) Maxim. and Their Efficient Detections by HPTLC and HPLC Analyses” (Molecules, 2021).

Sequences of proteins named here, by UniProt entry; tags and fusion partners are left off. Residues count along the entry.
UniProt P80457, 2-1332 limits assumed: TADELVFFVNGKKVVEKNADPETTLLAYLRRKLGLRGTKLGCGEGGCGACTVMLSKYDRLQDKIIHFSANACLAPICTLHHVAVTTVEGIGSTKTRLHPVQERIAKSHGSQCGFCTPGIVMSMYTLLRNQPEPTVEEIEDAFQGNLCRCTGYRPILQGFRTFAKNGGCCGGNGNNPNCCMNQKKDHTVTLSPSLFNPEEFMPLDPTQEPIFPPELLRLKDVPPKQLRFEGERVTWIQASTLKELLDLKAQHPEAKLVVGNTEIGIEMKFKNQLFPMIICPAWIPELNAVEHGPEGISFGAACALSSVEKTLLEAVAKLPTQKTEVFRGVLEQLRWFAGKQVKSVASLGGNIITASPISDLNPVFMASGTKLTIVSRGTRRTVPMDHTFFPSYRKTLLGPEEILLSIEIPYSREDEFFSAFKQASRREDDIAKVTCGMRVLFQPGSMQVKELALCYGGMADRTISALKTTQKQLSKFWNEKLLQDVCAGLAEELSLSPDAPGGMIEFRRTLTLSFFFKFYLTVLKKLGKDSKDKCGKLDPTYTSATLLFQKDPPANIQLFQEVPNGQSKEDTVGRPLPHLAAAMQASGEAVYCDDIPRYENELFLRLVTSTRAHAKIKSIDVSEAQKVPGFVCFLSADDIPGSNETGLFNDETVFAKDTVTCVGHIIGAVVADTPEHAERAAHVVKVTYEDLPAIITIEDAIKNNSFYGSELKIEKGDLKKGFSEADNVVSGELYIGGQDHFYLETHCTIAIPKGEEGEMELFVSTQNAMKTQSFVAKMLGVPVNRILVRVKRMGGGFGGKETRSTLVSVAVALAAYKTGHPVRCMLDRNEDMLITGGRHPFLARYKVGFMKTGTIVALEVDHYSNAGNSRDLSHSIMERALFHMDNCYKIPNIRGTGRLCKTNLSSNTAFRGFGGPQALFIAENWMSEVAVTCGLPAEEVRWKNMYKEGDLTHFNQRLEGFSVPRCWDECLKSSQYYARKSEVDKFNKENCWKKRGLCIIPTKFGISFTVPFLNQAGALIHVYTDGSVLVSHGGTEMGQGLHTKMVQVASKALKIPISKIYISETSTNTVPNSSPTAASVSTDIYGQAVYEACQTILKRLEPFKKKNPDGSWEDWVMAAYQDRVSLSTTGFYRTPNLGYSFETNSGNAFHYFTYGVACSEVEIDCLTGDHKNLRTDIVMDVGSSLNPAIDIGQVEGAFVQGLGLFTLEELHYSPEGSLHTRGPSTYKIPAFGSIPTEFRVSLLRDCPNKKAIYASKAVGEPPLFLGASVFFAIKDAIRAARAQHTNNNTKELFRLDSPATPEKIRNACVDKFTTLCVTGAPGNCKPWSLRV

Where two headings read alike, the source gives them in different places.

The experiment concerns the target xanthine oxidase (XO) (Bos taurus, UniProt P80457). The experiment is described as follows: Xanthine oxidase inhibitory activity by UV spectroscopy (uric acid formation at 293 nm). It counts as biochemical. Conditions: xanthine 56 µM, XO 0.01 U/mL, 25 °C. On the procedure: Inhibition of XO was conducted according to the procedure described by Sowndhararajan et al., with slight modifications. […] Prior to the addition of XO solution in the mixture, all the components were incubated at 25 °C in the dark for 5 min. […] The enzymatic activity assay without extract was defined as maximum relative activity, and the percentage of inhibition was calculated according to the method of Yan et al. IC50 values were determined using linear regression and are expressed in µg/mL of plant extract ± standard deviation. All measurements were performed in triplicate (n = 3).

`O=c1c(O)c(-c2ccc(O)cc2)oc2cc(O)cc(O)c12` [Kaempferol]: the IC50 runs as follows: (n = 3, read-out: IC50 (µM), XO inhibition) 12.9 ± 0.6 µM; (n = 3, read-out: IC50 (µg/mL), XO inhibition (converted)) 12.9 µM.
